Source: ChEMBL document CHEMBL5728058, “3-(carboxymethyl)-8-amino-2-oxo-1,3-diaza-spiro-[4.5]-decane derivatives” (2020)

Protein sequences, listed by entry. Tags and fused reporters are not part of them. Lines headed by an entry give the natural chain unless they say otherwise; changes in a name come on top.
UniProt P41146: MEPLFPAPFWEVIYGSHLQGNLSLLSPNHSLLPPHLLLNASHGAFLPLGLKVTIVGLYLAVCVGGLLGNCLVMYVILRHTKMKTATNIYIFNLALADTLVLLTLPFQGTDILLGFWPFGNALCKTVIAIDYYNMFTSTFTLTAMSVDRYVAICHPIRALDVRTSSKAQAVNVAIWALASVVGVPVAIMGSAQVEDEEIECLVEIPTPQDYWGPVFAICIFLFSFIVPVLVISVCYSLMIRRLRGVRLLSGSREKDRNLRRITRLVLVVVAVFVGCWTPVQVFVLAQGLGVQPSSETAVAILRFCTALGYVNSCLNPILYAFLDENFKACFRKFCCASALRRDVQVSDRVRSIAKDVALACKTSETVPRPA
UniProt P35372, whole entry, looked up: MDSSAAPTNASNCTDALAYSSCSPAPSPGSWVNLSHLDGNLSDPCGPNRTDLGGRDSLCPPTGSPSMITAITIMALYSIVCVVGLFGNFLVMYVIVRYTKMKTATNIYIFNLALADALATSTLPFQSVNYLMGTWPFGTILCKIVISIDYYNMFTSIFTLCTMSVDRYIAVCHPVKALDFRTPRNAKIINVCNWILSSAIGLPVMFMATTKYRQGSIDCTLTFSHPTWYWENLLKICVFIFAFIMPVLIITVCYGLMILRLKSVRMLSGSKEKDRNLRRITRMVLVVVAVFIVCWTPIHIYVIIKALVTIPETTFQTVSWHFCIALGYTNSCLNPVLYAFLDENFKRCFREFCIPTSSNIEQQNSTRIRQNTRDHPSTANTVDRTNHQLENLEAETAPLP

Tests used:
[1] = molecular target: Nociceptin receptor (Homo sapiens, UniProt P41146); test: Human Nociceptin/Orphanin FQ Peptide (hNOP) Receptor Binding Assay: The hNOP receptor binding assay was performed as homogeneous SPA-assay (scintillation proximity assay) using the assay buffer 50 mM TRIS-HCl, 10 mM MgCl2, 1 mM EDTA (pH 7.4). The final assay volume (250 μl/well) included 0.5 nM of [leucyl-3H]nociceptin as ligand (PerkinElmer Life Sciences, Inc. Boston, Mass., USA), and either test
[2] = molecular target: Mu-type opioid receptor (Homo sapiens, UniProt P35372); test: Human Mu-Opioid Peptide (hMOP) Receptor Binding Assay: The hMOP receptor binding assay was performed as homogeneous SPA-assay (scintillation proximity assay) using the assay buffer 50 mM TRIS-HCl (pH 7.4) supplemented with 0.052 mg/ml bovine serum albumin (Sigma-Aldrich Co., St. Louis, Mo.). The final assay volume (250 μl/well) included 1 nM of [N-allyl-2,3-3H]naloxone as ligand (PerkinElmer Life

Structure (SMILES)	Ki [1]	Ki [2]
CN(C)[C@]1(c2ccccc2)CC[C@]2(CC1)CN(CC(=O)Nc1ccncn1)C(=O)N2CC1(C)CCC1	5.7 nM	63.5 nM
CN(C)[C@]1(c2ccccc2)CC[C@]2(CC1)CN(CC(=O)NCCO)C(=O)N2CC1(C)CCC1	18 nM	92 nM
CN(C)[C@]1(c2ccccc2)CC[C@]2(CC1)CN(CC(N)=O)C(=O)N2CC1CCC1	4.4 nM and 2 nM	6.2 nM and 24 nM
CN[C@]1(c2ccccc2)CC[C@]2(CC1)CN(CC(=O)NCCOC)C(=O)N2CC1(O)CCC1	280 nM	400 nM
CNC(=O)CN1C[C@]2(CC[C@](c3ccccc3)(N(C)CC(C)C)CC2)N(CC2CCC2)C1=O	665 nM	1740 nM
CN(C)[C@]1(c2ccccc2)CC[C@]2(CC1)CN(CC(=O)N1CCC(C(N)=O)CC1)C(=O)N2CC1(O)CCC1	8 nM	510 nM
CNC(=O)CN1C[C@]2(CC[C@](c3ccccc3)(N(C)C)CC2)N(CC(=O)N(C)C)C1=O	170 nM	1120 nM
COCCCN1C(=O)N(CC(=O)N(C)CC(N)=O)C[C@]12CC[C@](c1ccccc1)(N(C)C)CC2	130 nM	185 nM
CN(C)[C@]1(c2ccccc2)CC[C@]2(CC1)CN(CC(=O)NCC1(O)CCCCC1)C(=O)N2CC1CCC1	3.7 nM	26.5 nM
CN(CC(N)=O)C(=O)CN1C[C@]2(CC[C@@](c3ccccc3)(N(C)C)CC2)N(CC2CCC2)C1=O	465 nM	210 nM
COCCOCCOCCOCCNC(=O)CN1C[C@]2(CC[C@](c3ccccc3)(N(C)C)CC2)N(CC2CCC2)C1=O	13 nM	270 nM
CNC(=O)CN1C[C@]2(CC[C@](c3ccccc3)(N(C)C)CC2)N(CCOC)C1=O	140 nM	145 nM
COc1ccnc(NC(=O)CN2C[C@]3(CC[C@](c4ccccc4)(N(C)C)CC3)N(CC3CCC3)C2=O)n1	2.5 nM and 6.5 nM	29 nM and 73.5 nM
COCCOCCOCCOCCOCCOCCNC(=O)CN1C[C@]2(CC[C@](c3ccccc3)(N(C)C)CC2)N(CC2CCC2)C1=O	52.3 nM	303 nM
CN(C)C(=O)CN1C(=O)N(CC(=O)Nc2ccncn2)C[C@]12CC[C@](c1ccccc1)(N(C)C)CC2	155 nM	1210 nM
CN(C)[C@]1(c2ccccc2)CC[C@]2(CC1)CN(CC(=O)NCCS(C)(=O)=O)C(=O)N2CC1CC1	8 nM	97 nM
CN(C)[C@]1(c2ccccc2)CC[C@]2(CC1)CN(CC(N)=O)C(=O)N2	330 nM	6020 nM
COCCCN1C(=O)N(CC(=O)NCc2ccncn2)C[C@]12CC[C@](c1ccccc1)(N(C)C)CC2	59 nM	45 nM
CNC(=O)C(C)(C)NC(=O)CN1C[C@]2(CC[C@@](NC)(c3ccccc3)CC2)N(CC2CCC2)C1=O	87.5 nM	180 nM
CN(C)[C@]1(c2ccccc2)CC[C@]2(CC1)CN(CC(=O)N1CCC(C)(O)CC1)C(=O)N2CC1CC1	13 nM	255 nM
CN[C@]1(c2ccccc2)CC[C@]2(CC1)C(=O)N(CC(=O)N1CCS(=O)(=O)CC1)C(=O)N2CC1(O)CCC1	23 nM	–
CNC(=O)CN1C[C@]2(CC[C@](c3ccccc3)(N(C)C)CC2)N(CC2(C)CCC2)C1=O	8.2 nM	–
CN(C)[C@]1(c2ccccc2)CC[C@]2(CC1)CN(CC(=O)NCC(N)=O)C(=O)N2CC1(C#N)CCC1	11.5 nM	–
CCN(C)[C@]1(c2ccccc2)CC[C@]2(CC1)CN(CC(=O)NC)C(=O)N2CC1CCC1	36.5 nM	–
CN[C@]1(c2ccccc2)CC[C@]2(CC1)CN(CC(=O)NC1COC1)C(=O)N2CC1(O)CCC1	145 nM	–
C[C@H](CO)NC(=O)CN1C[C@]2(CC[C@](c3ccccc3)(N(C)C)CC2)N(CC2CCC2)C1=O	3.7 nM	–
CN(C)[C@]1(c2ccccc2)CC[C@@]2(CC1)CN(CC(=O)NCCO)C(=O)N2CC1CCC1	66 nM	–
COCCOCCOCCOCCNC(=O)CN1C[C@]2(CC[C@](c3ccccc3)(N(C)C)CC2)NC1=O	475 nM	–
COCCN1C(=O)N(CC(=O)NCCO)C[C@]12CC[C@](c1ccccc1)(N(C)C)CC2	115 nM	–

Values joined by “and” are separate entries in the source; they are usually repeats but may differ in a detail not shown here. Equal values may be shown once.
